Among the targets are HLA-A*02:16/… (human); HLA-A*02:12/… (human); HLA-A*02:09/… (human); HLA-A*02:03/… (human).
Test in all cases: Octet, biotinylated pMHC on SA sensors, soluble TCR

For orientation: Kd means the constant that tells how readily two partners part at equilibrium. A higher Kd goes with weaker binding.

In turn, NY^c9 A0B1 (TCR) yielded a dissociation constant (Kd) with HLA-A*02:16/… (human) of 5 µM.
Consider NY^c9 A0B2 (TCR), for which the Kd in the experiment with HLA-A*02:12/… (human) came to 10 µM; in the experiment with HLA-A*02:09/… (human), 1.7 µM.
The substance NY^c9 A1B0 (TCR) displayed a Kd in the experiment with HLA-A*02:09/… (human) of 5 µM.
Same read-out and setting: as for NY^c9 A2B0 (TCR), the figure is 3 µM.
In the experiment with HLA-A*02:12/… (human), NY^c9 A3B0 (TCR) gave a dissociation constant (Kd) of 3 µM.
In the case of NY^c9 A5B0 (TCR), the equilibrium dissociation constant (Kd) in the experiment with HLA-A*02:03/… (human) was 9 µM; with HLA-A*02:09/… (human), 3 µM.
